Source: PubChem BioAssay (National Center for Advancing Translational Sciences (NCATS))
miR-21 reporter: raises the signal of a miR-21 reporter; Potency, µM (doses to about 38.3 µM); HeLa miR-21 FLuc reporter, luciferase, 48 h; AID 2288; 340,000 tested, under 10 active; active = well fitted rising curve with a large enough effect; inconclusive = small, poorly fitted or top-dose-only effect; inactive = no such curve, though single readings can be large or run the other way;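 further: miR-21 action dims this reporter so a rising signal means less miR-21 action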
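HeLa cells stably expressing CMV-driven firefly luciferase with a downstream miR-21 binding sequence, endogenously expressing miR-21, were treated with titrations (up to about 40uM final) for 48 hours at 37 degree Celsius. Luciferase luminescence was read after lysis.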
GLP-1R agonist: GLP-1 receptor (human) agonism. actives 0.007% (n = 380,000). HEK293 GLP-1R CRE-luciferase, luminescence, 4-6 h; cells express a hypersensitive GLP-1R form. Potency, µM (highest dose often 45.6 µM), hits mostly activators
GLP1R cytotox: cytotoxicity in counter-screen for GLP-1R inverse agonists. HEK293 cAMP-luciferase reporter cells, luminescence, 24 h. Potency, µM (titrated, usually from 38.3 µM), usual class: inhibitors. actives 0.13% (n = 410,000). AID 624418;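 also: loss of luciferase light is scored as toxicity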
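Compound-treated cells are incubated 24 hr at 37 deg C under 5% CO2 after a 12 hour attachment period, then luciferase detection reagent is added and luminescence is measured following 12 min at room temperature; lowered signal indicates toxicity.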
PTHR1 agonist: agonists of human PTHR1 parathyroid hormone receptor. Q03431. HEK293 GP2 PTHR1 cells, GloSensor cAMP luminescence, 1 h. Potency, µM (highest dose often 115 µM), hits mostly activators. actives 0.075% (n = 410,000). AID 743266; also: nearly all actives have a fitted effect of over 55% in size
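HEK-293-derived GP2 cells expressing PTHR1 and a GloSensor cAMP reporter, 3,000/well, plated overnight, given luciferin plus IBMX (each 0.5 mM as added) for 1 h at 37 °C, then compound for 1 h at 37 °C. Luminescence was read after 15 min at room temperature.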
GLP1R inv ag: acts as inverse agonist at human GLP-1 receptor. AID 624417. Potency, µM (top dose mostly 38.3 µM), usual class: inhibitors. P43220. HEK293 GLP-1R CRE-luciferase, luminescence, 24 h; GLP-1R form is constitutively active. actives 1.6% (n = 410,000); also: nearly all actives have a fitted effect of over 55% in size
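Cells are plated, allowed 12 hours at 37 deg C, then treated with compounds for 24 hr before luciferase detection reagent is added and luminescence is read after 12 min at room temperature. The HEK293 line carries constitutively active GLP-1R with a cAMP-responsive reporter.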
Pin1 inhibitor: blocks the human prolyl isomerase Pin1; Pin1 FP peptide displacement, HiFluor488, 10 min; Potency, µM (highest dose often 115 µM), actives largely listed as inhibitors; actives 0.009% (n = 390,000); AID 504891; active = well fitted inhibition curve with a large enough effect in the polarisation, with a control signal flat, not every such curve was filed as active; inconclusive = small, poorly fitted or top-dose-only effect, or effect the other way, or a change in a side signal; inactive = no such curve, though single readings can be large or run the other way; the % refers to the polarisation
Hits are given with their value; n = inactive; u = inconclusive; x = no result given. Shown are actives, neighbours in structure and some others; about 1.7% of the full set was active somewhere. Unless noted, calls follow the shape of the dose curve; as a rule, active = well fitted curve in the direction sought with a large enough effect; inconclusive = small, poorly fitted or top-dose-only effect, or another doubt; inactive = no such curve, though single readings can be large; an effect the other way counts as inactive or inconclusive.

SMILES	miR-21 reporter	GLP-1R agonist	GLP1R cytotox	PTHR1 agonist	GLP1R inv ag	Pin1 inhibitor
O=C(c1cccs1)N1CCN=C1SCc1cccnc1	n	n	n	u	n	n
Cc1cc(C)cc(NS(=O)(=O)c2ccc(-c3cc(C)no3)cc2)c1	u	x	n	n	3.55µM	n
O=[N+]([O-])c1cc(C(F)(F)F)ccc1Sc1ccc2ccccc2n1	n	n	n	n	10µM	n
Nc1nc(Sc2ccc(C(F)(F)F)cc2[N+](=O)[O-])n[nH]1	n	n	n	u	n	n
Cc1ccc(/C(=C\CN2CCCC2)c2cccc(/C=C/C(=O)O)n2)cc1	x	n	x	x	x	x
CCOc1cc(CNC(=O)c2ccc(Cn3c(=O)c4cccn4c4cccnc43)cc2)ccc1OC	n	x	n	n	n	n
Cc1cccc(NC(=S)N=Nc2c(O)[nH]c3ccccc23)c1	n	n	10µM	n	10µM	n
Cc1cc2c(s1)c1cnn(Cc3cc(C(F)(F)F)cc(Cl)c3F)c(=O)c1n2C	x	x	x	x	x	n
CCC(C(=O)OCC(=O)N1C(C)CCCC1C)c1ccccc1 (stereo not given)	n	n	n	n	8.91µM	n
CC1CCCC(C)N1C(=O)COC(=O)c1ccccc1O (stereo not given)	x	n	n	n	n	n
COc1cccc(/C=N/Nc2cc(-n3nc(C)cc3-c3ccccc3)ncn2)c1O	n	n	2.24µM	n	3.55µM	n
Cn1nnnc1Sc1ncnc2scc(-c3ccc4c(=O)ccoc4c3)c12	x	x	x	x	x	n
Clc1ccc(-c2cc3ccccc3nc2N2CCCC2)cc1	n	n	n	n	u	n
Clc1ccc(-c2cc3ccccc3nc2N2CCOCC2)cc1	n	n	n	n	10µM	n
COc1ccccc1CNC(=S)NCc1ccc(Cl)cc1	n	n	n	n	10µM	n
S=C(NCc1ccccc1)NCc1ccc(Cl)cc1	n	n	u	n	u	n
O=C(NCCn1cc(SCc2ccccc2)c2ccccc21)c1c(F)cccc1F	n	n	n	n	10µM	n
O=C(NCCn1cc(SCc2ccc(F)cc2)c2ccccc21)c1ccccc1F	n	n	n	n	7.94µM	n
O=C(NCCn1cc(SCc2ccc(C(F)(F)F)cc2)c2ccccc21)c1ccccc1F	u	n	n	n	u	n
O=C(NCCn1cc(SCc2ccc(C(F)(F)F)cc2)c2ccccc21)c1cccs1	n	n	n	n	11.2µM	n
O=C(NCCn1cc(SCc2ccc(F)cc2)c2ccccc21)c1c(F)cccc1F	u	n	n	n	u	n
CCOc1ccccc1CNC(=O)c1ccc2c(c1)sc1nc(-c3cccc(OC)c3)cn12	n	x	n	n	n	n
O=C(Cn1c(=O)n(-c2ccc(Cl)cc2)c(=O)c2c3c(sc21)CCCCC3)Nc1cccc(Cl)c1	n	n	n	n	n	n
COc1ccc(-c2cn3nc(N4CCC(C(=O)Nc5cc(Cl)ccc5C)CC4)sc3n2)cc1	n	x	n	n	n	n
CCCCCn1c(C)c2c(OCC)cccc(=O)c2c1C	n	n	n	n	10µM	n
SMILES	miR-21 reporter	GLP-1R agonist	GLP1R cytotox	PTHR1 agonist	GLP1R inv ag	Pin1 inhibitor
C=CC[C@H]1CC(C)=C[C@H](CC=C)N1C(=O)c1cc(COc2ccccc2SC)on1	n	n	n	n	8.91µM	u
CC(c1ccccc1)c1nnc(NC(=O)c2ccc3c(c2)OCO3)s1 (stereo not given)	n	n	n	n	n	n
CC(C)c1nnc(NC(=O)c2ccc3c(c2)OCO3)s1	n	n	n	n	1.12µM	n
N#Cc1nc(-c2ccco2)oc1N1CCN(C(c2ccccc2)c2ccccc2)CC1	n	n	n	n	10µM	n
Cc1ccc(C2=Nc3ccccc3N(CC(=O)Nc3ccccc3F)C(=O)C2)cc1C	n	x	n	n	u	n
Cc1ccc(C(=O)N(Cc2ccccc2)C(C)(C)C)cc1C	n	n	n	n	7.08µM	n
CC(C)(C)N(Cc1ccccc1)C(=O)c1ccc(Br)o1	n	n	n	n	n	n
COc1ccc(OC)c(NC(=O)c2ccc(CN3CCc4ccccc4C3)cc2)c1	n	n	n	n	11.2µM	n
